Data reported in article PMC9691020.

Legend:
[1] = biological target: WT M2β S1 (human beta-cardiac myosin subfragment 1) (human) (UniProt P12883)
E525K M2β S1 (human) = E525K M2β S1 (human) (UniProt P12883)
[2] = biological target: WT M2β 15HPZ.GFP (human beta-cardiac heavy meromyosin with 15 heptads of S2, a leucine zipper and a C-terminal GFP tag) (UniProt P12883)
E525K M2β 15HPZ.GFP = E525K M2β 15HPZ.GFP (UniProt P12883)

- K ATPase: actin concentration at half-maximal actin-activated ATPase (NADH coupled assay, 0.1 µM M2β, 5-60 µM actin, MOPS 20 buffer, 25°C) [1]: 52.2 µM
- K ATPase: actin concentration at half-maximal actin-activated ATPase (NADH coupled assay, 0.1 µM M2β, 5-60 µM actin, MOPS 20 buffer, 25°C) (E525K M2β S1 (human)): 1.8 µM
- K ATPase: actin concentration at half-maximal actin-activated ATPase (NADH coupled assay, 0.1 µM M2β, 5-60 µM actin, MOPS 20 buffer, 25°C) [2]: 99.9 µM
- Percent stuck filaments in the in vitro motility assay (myosin on nitrocellulose, Alexa-555 phalloidin actin) [2]: 27.8%
- K ATPase: actin concentration at half-maximal actin-activated ATPase (NADH coupled assay, 0.1 µM M2β, 5-60 µM actin, MOPS 20 buffer, 25°C) (E525K M2β 15HPZ.GFP): 53.3 µM
- Percent stuck filaments in the in vitro motility assay (myosin on nitrocellulose, Alexa-555 phalloidin actin) (E525K M2β 15HPZ.GFP): 34.8%
Substance: actin (rabbit skeletal muscle) (from UniProt P68135 1-377) (natural protein)
